SMILES strings stand for the structures.

Protein sequences, listed by entry. Tags and fused reporters are not part of them.
UniProt Q96RJ0, whole entry: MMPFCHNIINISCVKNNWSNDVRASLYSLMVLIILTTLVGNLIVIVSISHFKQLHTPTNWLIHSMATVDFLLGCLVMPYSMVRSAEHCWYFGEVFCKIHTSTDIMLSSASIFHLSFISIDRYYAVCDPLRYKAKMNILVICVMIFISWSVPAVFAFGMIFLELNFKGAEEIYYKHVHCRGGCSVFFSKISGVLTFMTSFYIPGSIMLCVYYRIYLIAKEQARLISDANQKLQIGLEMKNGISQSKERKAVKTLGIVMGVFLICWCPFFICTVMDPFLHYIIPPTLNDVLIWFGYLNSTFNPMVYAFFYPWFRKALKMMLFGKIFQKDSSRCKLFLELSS

EC50 data for one molecule are collected here from patent US20250382306A1, “HETEROCYCLIC COMPOUND AS TAAR1 LIGAND AGONIST” (SHANDONG LUYE PHARMACEUTICAL CO., LTD., priority 2022, published 2025).

The target of the assay is TAAR1 (Homo sapiens, UniProt Q96RJ0). The assay can be described thus: In vitro TAAR1 functional activity (cAMP Hunter CHO-K1 TAAR1 Gs cell line, HitHunter cAMP assay). To be noted: chemiluminescence cAMP readout. A general note: Changes in cAMP serve as a functional read-out for many G protein-coupled receptors.

Consider `CC(=O)c1ccsc1C1CNCCO1` (single isomer, unassigned), for which the EC50 (usually the concentration at which the effect is half-maximal) was over 10 µM.
